According to PMC4423819 (Nature, 2014):

System: endogenous MEIS2 in M059J cells
Assay: Steady-state endogenous MEIS2 levels in M059J cells
Format: cell-based, human
Details: 4 h, vs DMSO control

Nc1cccc2c1CN(C1CCC(=O)NC1=O)C2=O (stereo not shown) [lenalidomide]
Increase of endogenous MEIS2 steady-state level: up to 2.5 fold
